# Nrf2 inh – Nrf2 pathway inhibition | A549 ARE-Fluc reporter, luciferase luminescence, 18-24 h | Potency, µM (titrated, usually from 46 µM), for inactives: at the highest dose activity change, negative = inhibition, usual class: inhibitors | actives 2.1% (n = 360,000) | AID 504444; also: potency is read from the fitted curve at half-maximal effect; % is scaled to controls: 0 for no effect and ±100 for the full control effect; nearly all actives have a fitted effect of over 60% in size
#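 Cells were seeded and rested 2 h, then exposed to compounds for 18-24 h. CellTiter-Fluor was read first as a viability measure. BugLite was added 15 min before the final luminescent read of ARE-luciferase activity in A549 cells.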
# miR-21 reporter – miR-21 reporter, rising signal; Potency, µM (titrated, usually from 38.3 µM), without a hit: at the highest dose reporter change, positive = more light; AID 2288; 340,000 tested, under 10 active; HeLa miR-21 FLuc reporter, luciferase, 48 h; active = well fitted rising curve with a large enough effect; inconclusive = small, poorly fitted or top-dose-only effect; inactive = no such curve, though single readings can be large or run the other way;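 note: % of control where 0% means no effect; miR-21 action dims this reporter so a rising signal means less miR-21 action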
#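 Compounds were titrated across several concentrations (up to approximately 40 uM) and incubated 48 hours with HeLa miR-21-FLuc reporter cells (miR-21 target sequence downstream of FLuc, endogenous miR-21). Readout was firefly luciferase luminescence after lytic detection reagent.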
# Glioma ERSR ind – induces the endoplasmic reticulum stress response in human glioma cells; U87-MG GRP78 promoter luciferase reporter, 16 h; Potency, µM, without a hit: at the top dose activation, most hits filed as activators; actives 0.02% (n = 420,000); AID 602332; also: potency is read from the fitted curve at half-maximal effect; series mostly up to about 76 µM; % of control where 0% means no effect; nearly all actives have a fitted effect of over 35% in size
#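 Stably transfected U87-MG glioma cells carrying a GRP78-based luciferase sensor; 16 h compound incubation. Luminescence end-point read 10 min after Bright-Glo addition at room temperature.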
# A549 tox-1 – kills or reduces viability of A549 cells in Nrf2 counter-screen. A549 ARE-Fluc cells, CellTiter-Fluor viability, 18-24 h. Potency, µM (doses to about 46 µM), for inactives: at the top dose activity change, negative = cytotoxicity, usual class: inhibitors. actives 0.16% (n = 390,000). AID 504648; also: potency is read from the fitted curve at half-maximal effect; % is scaled to controls: 0 for no effect and ±100 for the full control effect
#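 A549 ARE-Fluc cells in 5% FBS OPTI-MEM, 5000 cells/well, rested 2 h then exposed to compounds in concentration-response for 18-24 h at 37 °C. Viability by CellTiter-Fluor fluorescence (Ex 405/Em 525) after 30 min; luciferase luminescence (BugLite, 15 min, RT) read afterwards.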
# TSG101-PTAP inh – blocks PTAP/TSG101 interaction to inhibit HIV-1 budding; 340,000 tested, under 10 active; Q99816; Potency, µM (highest dose often 115 µM), inactives show at the top dose activity change, negative = inhibition, usual class: inhibitors; Fluorescence polarization, FITC-PTAP peptide / Tsg101 binding; active = well fitted inhibition curve with a large enough effect in the main read-out, with a control signal flat, not every such curve was filed as active; inconclusive = small, poorly fitted or top-dose-only effect, or effect the other way, or a change in a side signal; inactive = no such curve, though single readings can be large or run the other way; also: potency is read from the fitted curve at half-maximal effect; % of control where 0% means no effect
#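 FP read-out: FITC-PTAP peptide, 50 nM final, binding Tsg101 binding domain, 10 uM final; 20 min, r.t.; 10 mM HEPES pH 7.5, 0.15 M NaCl, 0.01% Tween 20, 3 mM EDTA, 0.1 mM TCEP.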
# Nrf2 activator – activates Nrf2 signaling. AREc32 ARE-luciferase reporter (MCF7-derived line), luminescence, 24 h. actives 0.31% (n = 410,000). Potency, µM (series often up to 46.1 µM), inactives show top-dose activation, actives largely listed as activators; also: potency is read from the fitted curve at half-maximal effect; % of control where 0% means no effect; nearly all actives have a fitted effect of over 65% in size
#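 Quantitative high-throughput format: AREc32 reporter cells, 1000 per well, received compound by pin transfer and were incubated 24 hr at 37 deg C, 5% CO2, before Steady-Glo luminescence detection.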
# FLuc enzyme inh – firefly luciferase inhibition, Nrf2 hit validation; Potency, µM (series often up to 57.5 µM), for the others: at the highest dose activity change, negative = inhibition, actives largely listed as inhibitors; shares compounds with Nrf2 inh; actives 4% (n = 1,400); purified firefly luciferase, luminescence inhibition; also: potency is read from the fitted curve at half-maximal effect; % is scaled to controls: 0 for no effect and ±100 for the full control effect; nearly all actives have a fitted effect of over 65% in size
# A549 tox-2 – toxic to A549 ARE-Fluc cells in Nrf2 counterscreen; shares compounds with Nrf2 inh; AID 720523; A549 ARE-Fluc cells, cytotoxicity counterscreen; Potency, µM (doses to about 46.1 µM), for inactives: at the top dose activity change, negative = cytotoxicity, actives largely listed as inhibitors; actives 2% (n = 1,400);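 also: potency is read from the fitted curve at half-maximal effect; cells exposed to compounds for 18 to 24 hours; % is scaled to controls: 0 for no effect and ±100 for the full control effect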
# Nrf2 ARE inh – reduces Nrf2 ARE reporter signal in A549 cells; shares compounds with Nrf2 inh; A549 ARE-firefly luciferase reporter, luminescence; Potency, µM (titrated, usually from 46.1 µM), for the others: at the highest dose activity change, negative = inhibition, actives largely listed as inhibitors; AID 720524; actives 74% (n = 1,400); also: potency is read from the fitted curve at half-maximal effect; % is scaled to controls: 0 for no effect and ±100 for the full control effect; nearly all actives have a fitted effect of over 65% in size
# * = called active by the depositor; ? = inconclusive; . = no result given. Hits are enriched below; roughly 2.1% of the tested compounds scored in any of these assays. Unless noted, calls follow the shape of the dose curve; as a rule, active = well fitted curve in the direction sought with a large enough effect; inconclusive = small, poorly fitted or top-dose-only effect, or another doubt; inactive = no such curve, though single readings can be large; an effect the other way counts as inactive or inconclusive.
cpd	mol	Nrf2 inh	miR-21 reporter	Glioma ERSR ind	A549 tox-1	TSG101-PTAP inh
1	O=C(Nc1ccc(-c2nc3ccccc3s2)cc1)c1cc(-n2cnnc2)ccc1Cl	2.3µM*	22%	1%	?	-4%
2	COc1ccc(/C=N\NC(=O)c2ccccc2Br)cc1COc1c(F)c(F)cc(F)c1F	5.2µM*	15%	-5%	?	-1%
3	COc1ccc(/C=N\NC(=O)c2ccccc2F)cc1COc1ccc(F)cc1	-15%	3%	-3%	1%	-2%
4	O=C(Nc1nc(-c2cccs2)cs1)c1ccc(S(=O)(=O)N2CCCC2)cc1	9.2µM*	?	1%	?	-4%
5	O=C(Nc1nc(-c2ccc3c(c2)OCCO3)cs1)c1ccc(S(=O)(=O)N2CCCCC2)cc1	?	30%	-4%	-10%	-8%
6	O=C(Nc1nc(-c2ccc(S(=O)(=O)N3CCCCCC3)cc2)cs1)c1ccccc1	2.9µM*	27%	-5%	.	-4%
7	O=C(Nc1ccccc1)c1ccc(S(=O)(=O)Nc2cccc(O)c2)cc1	?	16%	-6%	-1%	-2%
8	CC(=O)c1cccc(NS(=O)(=O)c2ccc(C(=O)Nc3ccccc3)cc2)c1	7.3µM*	22%	-1%	-4%	-9%
9	C/C(=N\Nc1ccc2nncn2n1)c1ccccn1	3.7µM*	15%	-2%	-27%	1%
10	Cc1ccnc2cc(Cl)cc(Cl)c12	.	.	1%	.	.

cpd	Nrf2 activator	FLuc enzyme inh	A549 tox-2	Nrf2 ARE inh
1	3%	?	-13%	7.3µM*
2	2%	1%	-7%	?
3	0%	.	.	.
4	24%	-19%	-19%	?
5	0%	.	.	.
6	0%	0%	8%	4.1µM*
7	0%	.	.	.
8	-1%	-10%	-11%	4.1µM*
9	0%	-17%	-9%	2.6µM*
10	.	.	.	.

# (further entries)
cpd	mol	Nrf2 inh	miR-21 reporter	Glioma ERSR ind	A549 tox-1	TSG101-PTAP inh
11	Cc1ccc(Nc2c(-c3ccccn3)nc3cccc(C)n23)cc1	6.5µM*	?	-10%	?	-1%
12	Cc1ccc(Nc2c(-c3ccc(C)o3)nc3cccc(C)n23)cc1	-3%	0%	-3%	1%	.
13	NCCCC[C@H](NC(=O)[C@H](CS)NC(=O)[C@@H](N)Cc1cnc[nH]1)C(=O)N[C@@H](Cc1ccccc1)C(=O)N[C@@H](Cc1c[nH]c2ccccc12)C(=O)N[C@@H](Cc1c[nH]c2ccccc12)C(=O)O	.	.	-2%	.	.
14	COc1ccc(-c2nnc(NC(=O)c3ccc(S(=O)(=O)N4CCc5ccccc5C4)cc3)o2)cc1	2.8µM*	-1%	-3%	-10%	-4%
15	COc1ccccc1-c1nnc(NC(=O)c2ccc(S(=O)(=O)N3CCCC3)cc2)o1	?	-8%	-3%	-3%	-4%
16	COC(=O)c1ccc(-c2csc(NC(=O)c3ccc(S(=O)(=O)N4CCc5ccccc5C4)cc3)n2)cc1	6%	-3%	-2%	11%	-2%
17	COc1ccc(-c2csc(NC(=O)c3ccc(S(=O)(=O)N4CCc5ccccc5C4)cc3)n2)cc1	5.2µM*	10%	-5%	-11%	-2%
18	CCOC(=O)NNc1ccc(N(CC)CC(C)O)nn1 (stereo not given)	.	.	-3%	.	.
19	CCCNc1nc2c(c(=O)n(C)c(=O)n2C)n1CC(O)COc1ccccc1 (stereo not given)	8%	-1%	-1%	2%	.
20	COc1ccc(OCC(O)Cn2c(NCCO)nc3c2c(=O)n(C)c(=O)n3C)cc1 (stereo not given)	7.3µM*	20%	-3%	-6%	.

cpd	Nrf2 activator	FLuc enzyme inh	A549 tox-2	Nrf2 ARE inh
11	3%	-8%	?	5.2µM*
12	1%	.	.	.
13	.	.	.	.
14	0%	0%	-25%	8.2µM*
15	0%	.	.	.
16	-1%	.	.	.
17	1%	4%	0%	-27%
18	.	.	.	.
19	-1%	.	.	.
20	0%	1%	-3%	12µM*

# Not a retest: an excerpt of the list.
cpd	mol	Nrf2 inh	miR-21 reporter	Glioma ERSR ind	A549 tox-1	TSG101-PTAP inh
19	CCCNc1nc2c(c(=O)n(C)c(=O)n2C)n1CC(O)COc1ccccc1 (stereo not given)	8%	-1%	-1%	2%	.
20	COc1ccc(OCC(O)Cn2c(NCCO)nc3c2c(=O)n(C)c(=O)n3C)cc1 (stereo not given)	7.3µM*	20%	-3%	-6%	.

cpd	Nrf2 activator	FLuc enzyme inh	A549 tox-2	Nrf2 ARE inh
19	-1%	.	.	.
20	0%	1%	-3%	12µM*

# Remaining list, next part:
cpd	mol	Nrf2 inh	miR-21 reporter	Glioma ERSR ind	A549 tox-1	TSG101-PTAP inh
21	Cc1c(C(=O)N2CCCC(C)C2)sc2ncnc(NCCN3CCCCC3)c12 (stereo not given)	.	.	-6%	.	.
22	NC(=O)c1c(-c2ccc(Cl)cc2Cl)csc1NC(=O)Cc1ccccc1	2.6µM*	-3%	-2%	-14%	0%
23	O=C(Cc1ccccc1)Nc1scc(-c2ccccc2)c1C(=O)N1CCOCC1	11%	2%	-4%	3%	-2%
24	COc1ccc(CNc2cc(C)nc3ncnn23)c(OC)c1	1.6µM*	9%	-1%	-23%	-5%
25	COc1ccc(Nc2cc(C)nc3ncnn23)c(OC)c1	-11%	-18%	-4%	2%	-7%
26	O=C(NCc1ccco1)c1nc2c(nnn2Cc2ccccc2Cl)c(=O)[nH]1	4.6µM*	?	-3%	?	-14%
27	O=C(NCc1ccc2c(c1)OCO2)c1ccc2c(=O)n(C3CCCC3)c(=O)[nH]c2c1	8.2µM*	6%	-3%	?	-4%
28	COc1ccc(Cn2c(=O)[nH]c3cc(C(=O)NCc4ccc5c(c4)OCO5)ccc3c2=O)cc1	?	.	-5%	-2%	-4%
29	Cc1nc2nncn2c(NCc2ccc(Cl)cc2)c1C	3.3µM*	?	-4%	-5%	.
30	CCc1c(C)nc2nncn2c1NCc1ccc(OC)cc1	?	12%	.	-3%	.

cpd	Nrf2 activator	FLuc enzyme inh	A549 tox-2	Nrf2 ARE inh
21	.	.	.	.
22	2%	-18%	1%	5.2µM*
23	0%	.	.	.
24	3%	2%	-9%	?
25	13%	.	.	.
26	-2%	-6%	?	6.5µM*
27	4%	0%	-9%	0.23µM*
28	3%	.	.	.
29	3%	-1%	-2%	6.5µM*
30	1%	.	.	.

# The listing continues.
cpd	mol	Nrf2 inh	miR-21 reporter	Glioma ERSR ind	A549 tox-1	TSG101-PTAP inh
31	COC(=O)CSc1ncnc2c1sc1nc3c(cc12)COC(C)(C)C3	2.9µM*	0%	-11%	1%	-1%
32	c1coc(CNc2nc[n+]3c4c2ncn4CC3)c1	7%	.	.	-1%	.
33	Nc1cc(S(=O)(=O)N2CCOCC2)ccc1Oc1cccc(Br)c1	8.2µM*	.	-4%	-18%	-9%
34	COc1ccccc1CN(C)C(=O)c1cccc(S(=O)(=O)N2CCCC2)c1	-3%	.	-6%	4%	-7%

cpd	Nrf2 activator	FLuc enzyme inh	A549 tox-2	Nrf2 ARE inh
31	0%	?	-3%	7.3µM*
32	.	.	.	.
33	3%	0%	-1%	8.2µM*
34	-1%	.	.	.

# Part of the list above in a different format:
cpd	canonical_smiles	Nrf2 inh	miR-21 reporter	Glioma ERSR ind	A549 tox-1	TSG101-PTAP inh	Nrf2 activator	FLuc enzyme inh	A549 tox-2	Nrf2 ARE inh
32	c1coc(CNc2nc[n+]3c4c2ncn4CC3)c1	7%	.	.	-1%	.	.	.	.	.
31	COC(=O)CSc1ncnc2c1sc1nc3c(cc12)COC(C)(C)C3	2.9µM*	0%	-11%	1%	-1%	0%	?	-3%	7.3µM*

# High-throughput results as filed in PubChem BioAssay.
